Experimental data from patent US10556905B2, “Processes for preparing a diazabicyclooctane compound” (priority 2012, dated 2020).

By UniProt entry, the sequences of proteins in these tests, tags left out. Residues count along the entry.
UniProt Q9F663, 25-293, looked up: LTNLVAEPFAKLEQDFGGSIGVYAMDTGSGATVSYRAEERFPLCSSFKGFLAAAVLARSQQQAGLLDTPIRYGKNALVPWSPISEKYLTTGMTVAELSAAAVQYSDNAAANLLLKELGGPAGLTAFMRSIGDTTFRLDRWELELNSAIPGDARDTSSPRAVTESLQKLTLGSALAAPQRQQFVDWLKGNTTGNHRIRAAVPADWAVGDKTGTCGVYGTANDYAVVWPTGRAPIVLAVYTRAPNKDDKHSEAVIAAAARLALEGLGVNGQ

Molecular target: T1, KPC-2 (Klebsiella pneumoniae, UniProt Q9F663)
T1 construct: AmpC, TEM-1, KPC-2 or OXA-2 domain excluding signal peptide was amplified with PCR; made in house; host or cells: Escherichia coli BL21 (DE3), pET-28b(+)
Assay: β-Lactamase inhibitory activity (nitrocefin hydrolysis), KPC-2
Assay type: biochemical

With `O=C(NC1CCNCC1)[C@@H]1CC[C@@H]2CN1C(=O)N2OS(=O)(=O)O` [MK-7655, reference compound] the IC50 was 100 to 1000 nM.
